pIC50: −log10 of the molar value.
Target: Voltage-gated inwardly rectifying potassium channel KCNH2 (Homo sapiens, UniProt Q12809)
Assay: Inhibition of hERG channel expressed in CHO cells at holding potential of -80 mV by whole cell patch clamp method
Assay type: toxicity, cell-based

The chains behind the UniProt entries cited, without tags or fusion partners. Where a name states a change or a piece, a line headed by the entry shows the natural chain unless it says otherwise.
UniProt Q12809: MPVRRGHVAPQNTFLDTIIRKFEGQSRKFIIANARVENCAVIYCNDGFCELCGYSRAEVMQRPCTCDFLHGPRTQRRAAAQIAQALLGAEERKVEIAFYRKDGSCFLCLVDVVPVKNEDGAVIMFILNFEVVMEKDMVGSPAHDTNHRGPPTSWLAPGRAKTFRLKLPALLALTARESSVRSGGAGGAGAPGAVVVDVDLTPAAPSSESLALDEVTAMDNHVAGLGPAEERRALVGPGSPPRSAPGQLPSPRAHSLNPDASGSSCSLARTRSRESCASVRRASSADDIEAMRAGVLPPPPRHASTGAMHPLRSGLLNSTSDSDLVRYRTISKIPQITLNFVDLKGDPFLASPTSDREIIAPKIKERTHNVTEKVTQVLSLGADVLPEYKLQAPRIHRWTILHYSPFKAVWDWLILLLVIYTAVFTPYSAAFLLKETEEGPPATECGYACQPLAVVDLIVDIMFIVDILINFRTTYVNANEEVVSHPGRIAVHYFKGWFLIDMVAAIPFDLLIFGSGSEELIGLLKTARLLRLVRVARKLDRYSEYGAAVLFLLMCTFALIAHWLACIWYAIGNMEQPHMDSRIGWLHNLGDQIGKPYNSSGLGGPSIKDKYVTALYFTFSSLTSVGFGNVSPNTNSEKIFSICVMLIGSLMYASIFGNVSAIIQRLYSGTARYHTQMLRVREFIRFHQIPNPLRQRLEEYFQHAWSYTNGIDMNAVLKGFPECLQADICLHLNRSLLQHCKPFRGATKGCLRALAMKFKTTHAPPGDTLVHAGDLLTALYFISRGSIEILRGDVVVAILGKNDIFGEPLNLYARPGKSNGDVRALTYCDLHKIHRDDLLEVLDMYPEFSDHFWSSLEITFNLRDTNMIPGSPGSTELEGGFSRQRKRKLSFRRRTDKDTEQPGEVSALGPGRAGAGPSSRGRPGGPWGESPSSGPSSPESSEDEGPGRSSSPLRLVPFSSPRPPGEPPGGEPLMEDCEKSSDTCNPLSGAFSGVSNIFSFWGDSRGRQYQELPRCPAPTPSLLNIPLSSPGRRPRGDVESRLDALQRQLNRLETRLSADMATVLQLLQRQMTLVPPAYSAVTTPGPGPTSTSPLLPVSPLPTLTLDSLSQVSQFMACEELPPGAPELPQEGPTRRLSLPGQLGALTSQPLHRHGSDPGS

| SMILES | pIC50 |
| --- | --- |
| O[C@@H](c1cc(C(F)(F)F)nc2c(C(F)(F)F)cccc12)[C@H]1CCCCN1 [(S,R)-MEFLOQUINE] | 4.82 |
| O[C@H](c1cc(C(F)(F)F)nc2c(C(F)(F)F)cccc12)[C@@H]1CCCCN1 [(R,S)-MEFLOQUINE] | 4.87 |

— ChEMBL document CHEMBL5154649, “Design, synthesis, and characterization of novel aminoalcohol quinolines with strong in vitro antimalarial activity” (Eur J Med Chem, 2022)
